Experimental data published in US20260001892A1, “COMPOUND FOR REGULATING AND CONTROLLING ACTIVITY OF 15-PGDH AND PREPARATION METHOD THEREFOR” (SCINNOHUB PHARMACEUTICAL CO., LTD., priority 2022, published 2026).

Sequences of proteins named here, by UniProt entry; tags and fusion partners are left off.
UniProt P15428, whole entry: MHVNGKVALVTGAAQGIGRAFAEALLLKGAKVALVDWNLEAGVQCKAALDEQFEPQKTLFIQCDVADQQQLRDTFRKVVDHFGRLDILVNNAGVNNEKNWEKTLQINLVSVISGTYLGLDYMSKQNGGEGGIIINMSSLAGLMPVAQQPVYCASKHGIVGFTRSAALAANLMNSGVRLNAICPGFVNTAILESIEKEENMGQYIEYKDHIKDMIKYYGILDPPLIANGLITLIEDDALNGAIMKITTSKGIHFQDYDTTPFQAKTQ

Target: 15-PGDH (Homo sapiens (Human), UniProt P15428)
Experiment: Detection of activity of 15-PGDH enzyme
Details: inhibitory activity against 15-PGDH enzyme; substrates β-NAD and PGF2α; fluorescence Ex/Em=340/450
Protocol: • a. A solution of pH 7.5 containing 50 mM Tris-HCl, 0.01% Tween 20 was prepared with ultrapure water as a reaction buffer; • b. A 10 mM mother liquor of the compound to be tested was prepared with DMSO, and then the reaction buffer was used to dilute the mother liquor of the compound to be tested to obtain solution 1 of the compound to be tested at a concentration of 40,000 nM, and then the solution 1 of the compound to be tested was serially diluted into solutions 2-9 (or 2-12) of the compound to be tested at 9 (or 11) concentrations with a gradient difference of three-fold. 5 μL of each concentration of solutions of the compound to be tested was respectively taken and added into a 384-well plate as test wells; • c. 5 μL of the reaction buffer was then added to the blank wells of the 384-well plate as positive control and blank control wells, respectively; • d. The reaction buffer was used to prepare a 15-PGDH protein solution at a concentration of 5 ng/μL, 5 μL of the 15-PGDH protein solution was taken and added to the test wells and positive control wells, and meanwhile 5 μL of the reaction buffer was added to the blank control wells, then the plate was centrifuged at 2000 rpm for 30 seconds; • e. […] The fluorescence signal value (Ex/Em=340/450) of each well was detected continuously by using a multifunctional microplate reader. […]

## N#Cc1c(C(=O)N2CCCCC2)sc2nc(-c3cccnc3)cnc12
  IC50: 0.01 to 0.02 µM
